Experimental data taken from patent publication US11793827B2, “Adenosine derivative and pharmaceutical composition comprising the same” (Brii Biosciences, Inc., priority 2021, dated 2023).

Assay: Plasma stability (human plasma)
Protocol: The pooled frozen plasma was thawed in a water bath at 37° C. prior to experiment. Plasma was centrifuged at 4000 rpm for 5 min and the clots were removed if any. The pH will be adjusted to 7.4±0.1 if required.
Preparation of test compounds and positive control (propantheline bromide): 1 mM intermediate solution was prepared by diluting 10 μL of the stock solution with 90 μL MeOH; 1 mM intermediate of positive control Propantheline was prepared by diluting 10 μL of the stock solution with 90 μL ultrapure water. 100 μM dosing solution was prepared by diluting 20 μL of the intermediate solution (1 mM) with 180 μL MeOH. 98 μL of blank plasma was spiked with 2 μL of dosing solution (100 μM) to achieve 2 μM of the final concentration in duplicate and samples were incubated at 37° C. in a water bath. […] Centrifuged sample plates at 4,000 rpm for 10 min. An aliquot of supernatant (100 μL) was transferred from each well to another plates.

## C#C[C@]1(COC(=O)OCC23CC4CC(CC(C4)C2)C3)O[C@@H](n2cnc3c(N)nc(F)nc32)C[C@@H]1OC(=O)C(C)C [Compound 20, ((2R,3S,5R)-2-(((((1-adamantyl)methoxy)carbonyl)oxy)methyl)-5-(6-amino-2-fluoro-9H-purin-9-yl)-2-ethynyltetrahydrofuran-3-yl) isobutyrate]
  Formation of EFdA at 30 min: No
